System: Liver microsome
Assay: Drug metabolism in human liver microsomes assessed as intrinsic clearance per mg protein by multiple depletion curves method

CLH: 143 µL/min/g
SMILES: O=C(O)Cc1ccccc1Nc1c(Cl)cccc1Cl [DICLOFENAC]
